Biological target: T1, IL-1Rα (interleukin-1 receptor alpha), R&D systems (UniProt P14778 18-332, limits assumed)
T1 construct: also called IL-1Ra (interleukin-1 receptor alpha)
T1 sequence (looked up): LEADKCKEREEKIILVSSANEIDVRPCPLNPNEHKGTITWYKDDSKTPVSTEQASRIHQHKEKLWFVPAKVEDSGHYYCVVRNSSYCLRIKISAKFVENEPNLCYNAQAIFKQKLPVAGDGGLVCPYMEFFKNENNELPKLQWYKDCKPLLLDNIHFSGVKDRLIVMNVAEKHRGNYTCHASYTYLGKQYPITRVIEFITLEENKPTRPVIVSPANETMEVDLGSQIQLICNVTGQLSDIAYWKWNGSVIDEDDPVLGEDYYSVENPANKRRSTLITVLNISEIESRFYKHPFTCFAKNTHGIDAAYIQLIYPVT
Assay: BLI (Octet RED 384), receptor coated on AR2G biosensor at 1 µg/ml, GI210B1 15.6-1,000 nM
Method: The binding ability of GI210B1, which was obtained through the method of Preparation Example 1 above, to IL-1Ra ([…]) was measured. At that time, the binding ability to IL-1Ra was confirmed using Octet RED 384 (ForteBio). The AR2G (amine reactive 2nd generation) biosensor was used by immersion in 1× kinetic buffer for 10 minutes. IL-1Ra (R&D systems) was prepared at a concentration of 1 μg/ml and coated on the biosensor, and the binding ability was confirmed at each concentration by serially diluting GI210B1 from 15.6 nM to 1,000 nM.

- koff: 0.0093 s⁻¹
- kon: 22000 M⁻¹ s⁻¹
B1: GI210B1 (GLP-1-IgG4 Fc-IL-1Ra) fusion protein dimer (Fc fusion)
chain: HGEGTFTSDVSSYLEEQAAKEFIAWLVKGGGGGGGSGGGGSGGGGSGGAESKYGPPCPPCPAPEAAGGPSVFLFPPKPKDQLMISRTPEVTCVVVDVSQEDPEVQFNWYVDGVEVHNAKTKPREEQFNSTYRVVSVLTVLHQDWLNGKEYKCKVSNKGLPSSIEKTISKAKGQPREPQVYTLPPSQEEMTKNQVSLTCLVKGFYPSDIAVEWESNGQPENNYKTTPPVLDSDGSFFLYSRLTVDKSRWQEGNVFSCSVLHEALHNHYTQKSLSLSLGGGGGSGGGGSGGGGSGGRPSGRKSSKMQAFRIWDVNQKTFYLRNNQLVAGYLQGPNVNLEEKIDVVPIEPHALFLGIHGGKMCLSCVKSGDETRLQLEAVNITDLSENRKQDKRFAFIRSDSGPTTSFESAACPGWFLCTAMEADQPVSLTNMPDEGVMVTKFYFQEDE
notes: also called third fusion protein
